Experimental data published in patent US20050131051A1, “2-3-disubstituted quinuclidiness as modulators of monoamine transporters and theraperutic and diagnostic methods based thereon” (priority 2000, published 2005).

By UniProt entry, the sequences of proteins in these tests, tags left out. Residues count along the entry.
UniProt Q63380, 1-617: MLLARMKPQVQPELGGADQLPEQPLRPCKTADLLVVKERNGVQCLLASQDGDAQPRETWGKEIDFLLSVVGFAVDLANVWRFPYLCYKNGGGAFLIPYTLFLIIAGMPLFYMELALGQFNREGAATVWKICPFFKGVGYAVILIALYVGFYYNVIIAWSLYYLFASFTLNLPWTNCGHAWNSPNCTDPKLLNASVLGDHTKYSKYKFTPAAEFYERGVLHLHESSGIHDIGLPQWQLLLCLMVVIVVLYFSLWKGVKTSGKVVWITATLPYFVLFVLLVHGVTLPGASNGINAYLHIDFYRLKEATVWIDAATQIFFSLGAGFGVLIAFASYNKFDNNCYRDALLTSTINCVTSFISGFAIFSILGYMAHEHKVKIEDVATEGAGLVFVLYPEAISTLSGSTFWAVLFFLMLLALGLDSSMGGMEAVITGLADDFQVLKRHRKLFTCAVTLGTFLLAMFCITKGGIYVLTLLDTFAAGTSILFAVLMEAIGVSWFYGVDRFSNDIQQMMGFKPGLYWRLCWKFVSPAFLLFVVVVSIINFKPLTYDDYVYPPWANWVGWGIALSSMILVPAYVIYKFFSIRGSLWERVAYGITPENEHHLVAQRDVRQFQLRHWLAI

Target: T1, norepinephrine transporter (Rattus norvegicus, UniProt Q63380)
T1 construct: using synaptosomes prepared from rat midbrain and parietal/occipital cortex, respectively; from tissue; host or cells: rat parietal/occipital cortex synaptosomes
Test: Synaptosomal uptake of [3H]NE
Assay type: biochemical
Details: Ki (nM) NE, synaptosomes from rat parietal/occipital cortex; mean ± standard error or range of 2-3 experiments
Protocol: IC50 values were determined by a computer assisted, iterative fit to a four-parameter sigmoidal equation (ALLFIT). These values were then converted to Ki values according to the Cheng-Prusoff equation assuming classical competitive inhibition. Preincubation of the drug and synaptosomes at 37° C. for 30 min was used to approximate equilibrium conditions as necessary to satisfy the requirements of the Cheng-Prusoff equation.
The effect of candidate compounds in antagonizing dopamine high-affinity uptake was determined using a method previously employed. For [^3H]DA uptake, dissected rat striata were homogenized with a Teflon-glass pestle in ice-cold 0.32 M sucrose and centrifuged for 10 mm at 1000×g. The supernatant was centrifuged at 17,500×g for 20 mm. This P2 synaptosomal pellet was resuspended in 30 volumes of ice-cold modified KRH buffer. An aliquot of the synaptosomal suspension was preincubated with the buffer and drug for 30 mm at 37° C., and uptake initiated by the addition of [^3H]dopamine (5 nM, final conc.). After 5 mm, uptake was terminated by adding 5 ml of cold buffer containing glucosamine as a substitute for NaCl and then finally by rapid vacuum filtration over GF-C glass fiber filters, followed by washing with two 5 ml volumes of ice-cold, sodium-free buffer. Radioactivity retained on the filters was determined by liquid scintillation spectrometry. […]

`COC(=O)[C@H]1[C@@H](OC(=O)c2ccccc2)C[C@@H]2CC[C@H]1N2C` [R-cocaine (1), cocaine, reference compound] showed a Ki of 108 ± 4 nM.
